From US20100249071A1, “Modulators of S1P and Methods of Making And Using” (Exelixis, Inc., priority 2009, published 2010)

The chains behind the UniProt entries cited, without tags or fusion partners.
UniProt P21453, whole entry: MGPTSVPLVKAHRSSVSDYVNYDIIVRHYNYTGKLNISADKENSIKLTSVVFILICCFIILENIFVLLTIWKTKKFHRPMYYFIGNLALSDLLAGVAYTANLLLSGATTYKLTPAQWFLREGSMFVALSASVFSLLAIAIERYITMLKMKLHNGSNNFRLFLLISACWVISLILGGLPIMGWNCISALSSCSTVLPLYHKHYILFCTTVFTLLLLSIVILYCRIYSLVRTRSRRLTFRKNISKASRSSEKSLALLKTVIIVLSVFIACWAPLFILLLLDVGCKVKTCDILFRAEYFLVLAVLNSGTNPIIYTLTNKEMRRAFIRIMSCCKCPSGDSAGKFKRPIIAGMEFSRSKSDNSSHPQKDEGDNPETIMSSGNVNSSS
UniProt Q9H228, whole entry: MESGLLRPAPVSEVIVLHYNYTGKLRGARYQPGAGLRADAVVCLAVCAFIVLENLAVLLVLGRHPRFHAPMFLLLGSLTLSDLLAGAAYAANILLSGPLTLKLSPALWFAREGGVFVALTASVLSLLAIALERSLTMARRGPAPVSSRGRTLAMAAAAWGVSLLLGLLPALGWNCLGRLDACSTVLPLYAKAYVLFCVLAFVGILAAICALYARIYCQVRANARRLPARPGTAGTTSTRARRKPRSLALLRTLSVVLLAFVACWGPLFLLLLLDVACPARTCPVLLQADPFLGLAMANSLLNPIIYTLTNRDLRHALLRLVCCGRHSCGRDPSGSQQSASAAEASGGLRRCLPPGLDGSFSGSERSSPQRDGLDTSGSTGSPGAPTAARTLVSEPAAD
UniProt P32121, whole entry partner: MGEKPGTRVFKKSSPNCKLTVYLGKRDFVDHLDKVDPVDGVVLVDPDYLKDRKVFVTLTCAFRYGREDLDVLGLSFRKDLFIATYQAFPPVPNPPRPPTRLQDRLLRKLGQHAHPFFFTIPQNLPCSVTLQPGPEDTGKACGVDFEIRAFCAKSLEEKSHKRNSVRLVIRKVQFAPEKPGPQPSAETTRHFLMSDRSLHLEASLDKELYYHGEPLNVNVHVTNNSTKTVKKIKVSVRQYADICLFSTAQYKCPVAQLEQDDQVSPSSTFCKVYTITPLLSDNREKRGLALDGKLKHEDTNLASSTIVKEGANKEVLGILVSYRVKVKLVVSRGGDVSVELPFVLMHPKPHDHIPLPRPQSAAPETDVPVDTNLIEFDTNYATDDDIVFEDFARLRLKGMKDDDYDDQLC

How the values were obtained:
[1] = biological target: S1P1 (Homo sapiens, UniProt P21453); assay: Tango β-arrestin recruitment assay in U2OS cells (Assay 2b); conditions: read-out: Assay 2b EC50
Source text: For the Tango™ β-arrestin recruitment assay, the cytoplasmic C-terminus of S1P1 was tethered to the tTA transcriptional activator with a linker that contains a cleavage site for the N1a protease from tobacco etch virus (TEV protease). The C-terminus of the human β-arrestin2 protein was fused to TEV protease. Binding of an agonist recruits the βl -arrestin-TEV fusion protein to the receptor resulting in cleavage of the linker and released of tTA to enter the nucleus and subsequently activated a tTA-dependent luciferase reporter gene.
Assay 2b: Alternatively, U2OS cells expressing the reporter gene and S1P1 (Invitrogen) were added to the wells of a 384-well white opaque bottom assay plate (PerkinElmer) at 0.3125×10^6 cells per well. […] Fluorescence was measured using an EnVision plate reader (PerkinElmer, Waltham, Mass.) at an excitation wavelength of 409 nm and emission wavelengths of 460 nm and 530 nm. The emission intensity at each wavelength was background subtracted against wells containing medium only and the F460 nm/F530 nm ratio determined for each concentration of the test compounds. Percent activity was calculated as [(test compound ratio−DMSO ratio)/(positive control ratio−DMSO ratio)*100], where the positive control and DMSO ratios are from cells incubated with the efficacy control 1 μM S1P and 1% DMSO, respectively. […]

[2] = biological target: hS1PR5 (hEdg8) membrane protein (Homo sapiens, UniProt Q9H228); assay: hS1P5R GTPγS binding assay (Assay 4); conditions: read-out: Assay 4 EC50
Method: The hS1PR5 GTPγS binding assay was carried out at room temperature in 96-well non-binding surface assay plates. The reaction in each well contained 5 μg hS1PR5 (hEdg8) membrane protein from CHO cells expressing hS1PR5, 30 μM GDP, 0.1 nM [^35S]GTPγS, 0.25% fatty acid free BSA, and serially-diluted Compound of the Invention in 200 μL assay buffer (25 mM Tris-HCl PH 7.9, 100 mM NaCl, 3 mM MgCl2, and 0.2 mM EGTA). After one hour of incubation, 0.9 mg of WGA (Wheat Germ Agglutinin) SPA beads in 50 μL of assay buffer was added to each well. The SPA beads were spun down after an additional one hour incubation. The radioactivity of the bound GTPγS was counted by reading the assay plate using a MicroBeta.

[3] = biological target: hS1P1R (hEdg1) membrane protein (Homo sapiens, UniProt P21453); assay: hS1P1R GTPγS binding assay (Assay 3a); conditions: read-out: Assay 3a EC50
Method: Assay 3a: The hS1P1R GTPγS binding assay was carried out at room temperature in 96 well non-binding surface assay plates. The reaction in each well contained 4 μg hS1P1R (hEdg1) membrane protein (Lonza), 30 μM GDP, 0.1 nM [^35S]GTPγS, 0.25% fatty acid free BSA, and serially diluted hS1P1R agonist compound in 200 μL assay buffer (25 mM Tris-HCl PH 7.9, 100 mM NaCl, 3 mM MgCl2, and 0.2 mM EGTA). After one hour of incubation, 0.9 mg of WGA (Wheat Germ Agglutinin) SPA beads in 50 μL of assay buffer was added to each well. The SPA beads were spun down after an additional one hour incubation. The radioactivity of the bound GTPγS was counted by reading the assay plate using a MicroBeta.

EC50 [1]: 50 to 250 nM
EC50 [2]: 250 to 2800 nM
EC50 [3]: 50 to 250 nM
Structure (SMILES): CC(C)Oc1ccc(-c2nnc(-c3cc(F)c(OC[C@H](N)CO)cc3Cl)s2)cc1
